From publication PMC9624268 (Translational Vision Science & Technology, 2022)

Assay type: in vivo
Conditions: Dutch Belted, rabbit, choroid/BrM/RPE, po, 15 mg/kg

CC(=O)c1nn(CC(=O)N2C[C@H](F)C[C@H]2C(=O)Nc2cccc(Br)n2)c2ccc(-c3cnc(C)nc3)cc12 [Danicopan]
Tmax: 1 h
